Measurements: US20220411483A1

Chains of the proteins cited; added tags and fusions are not shown. Chains listed by the source or under a name are the forms on record and can include a tag or linker.
human IgE (human), heavy, as listed by the source, chain 1 of 2: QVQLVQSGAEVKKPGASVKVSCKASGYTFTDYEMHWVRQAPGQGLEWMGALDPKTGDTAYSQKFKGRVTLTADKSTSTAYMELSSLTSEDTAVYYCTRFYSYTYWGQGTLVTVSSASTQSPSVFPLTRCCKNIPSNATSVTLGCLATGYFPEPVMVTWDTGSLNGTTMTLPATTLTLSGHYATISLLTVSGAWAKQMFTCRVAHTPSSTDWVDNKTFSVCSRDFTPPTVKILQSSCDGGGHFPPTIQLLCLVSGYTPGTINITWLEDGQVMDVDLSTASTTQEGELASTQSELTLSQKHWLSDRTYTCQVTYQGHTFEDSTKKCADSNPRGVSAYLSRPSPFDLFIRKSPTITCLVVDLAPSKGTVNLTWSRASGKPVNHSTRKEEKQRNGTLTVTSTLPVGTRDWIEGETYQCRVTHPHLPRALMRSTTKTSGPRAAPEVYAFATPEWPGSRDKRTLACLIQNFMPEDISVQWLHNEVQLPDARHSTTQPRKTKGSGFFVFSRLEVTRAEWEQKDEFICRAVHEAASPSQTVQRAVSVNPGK

How the values were obtained:
human IgE (human) [1] = test: SPR Biacore T200, 37 C, hIgE on chip, antibody analyte; pH 5.8, 3 µM Ca
human IgE (human) [2] = test: SPR Biacore T200, 37 C, hIgE on chip, antibody analyte; pH 7.4, […] Ca
human IgE (human) [3] = test: SPR Biacore T200, 37 C, hIgE on chip, antibody analyte; pH 5.8, […] Ca

Question: How did the Kd (human IgE (human) [1]) turn out when “Xolair (omalizumab, Novartis) (antibody)” was run?
Answer: 13 nM

Question: What about the Kd (human IgE (human) [2]) of the same substance?
Answer: 4.4 nM

Question: And the Kd (human IgE (human) [3])?
Answer: 9.9 nM
